Values quoted from earlier work in patent US20100136094A1, “Systems for modulating inflammation” (Searete LLC, a limited liability corporation of the state …, priority 2008, published 2010).

Protein sequences, listed by entry. Tags and fused reporters are not part of them. Residues count along the entry.
UniProt P09619, 33-1106, species assumed: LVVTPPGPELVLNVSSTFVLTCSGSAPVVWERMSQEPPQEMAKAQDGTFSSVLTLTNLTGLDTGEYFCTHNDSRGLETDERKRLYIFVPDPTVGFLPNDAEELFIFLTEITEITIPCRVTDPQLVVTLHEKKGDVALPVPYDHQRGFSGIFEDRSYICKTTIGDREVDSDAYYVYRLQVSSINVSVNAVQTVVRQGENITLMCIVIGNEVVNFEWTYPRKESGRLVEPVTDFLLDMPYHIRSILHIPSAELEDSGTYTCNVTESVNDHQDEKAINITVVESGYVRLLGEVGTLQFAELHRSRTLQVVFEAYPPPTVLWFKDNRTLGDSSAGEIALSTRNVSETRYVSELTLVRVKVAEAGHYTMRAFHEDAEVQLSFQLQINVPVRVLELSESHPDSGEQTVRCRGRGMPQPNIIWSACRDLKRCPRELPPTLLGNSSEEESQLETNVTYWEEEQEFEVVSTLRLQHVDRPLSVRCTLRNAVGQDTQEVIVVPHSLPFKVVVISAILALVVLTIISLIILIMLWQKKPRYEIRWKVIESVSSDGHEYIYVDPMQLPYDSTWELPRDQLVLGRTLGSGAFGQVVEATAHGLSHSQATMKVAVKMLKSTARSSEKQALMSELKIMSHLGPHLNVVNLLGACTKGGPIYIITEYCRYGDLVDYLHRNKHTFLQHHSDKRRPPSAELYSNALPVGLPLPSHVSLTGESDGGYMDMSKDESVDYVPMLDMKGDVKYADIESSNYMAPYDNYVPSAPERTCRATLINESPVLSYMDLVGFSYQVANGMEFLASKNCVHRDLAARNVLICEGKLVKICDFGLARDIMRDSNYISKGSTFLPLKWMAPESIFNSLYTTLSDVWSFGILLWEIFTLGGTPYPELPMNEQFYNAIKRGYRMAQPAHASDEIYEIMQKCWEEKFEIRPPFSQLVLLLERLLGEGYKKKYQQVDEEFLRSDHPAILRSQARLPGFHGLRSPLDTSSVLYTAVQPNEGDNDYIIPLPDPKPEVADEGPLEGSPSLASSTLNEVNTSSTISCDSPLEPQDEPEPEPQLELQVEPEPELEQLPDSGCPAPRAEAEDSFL
UniProt P10721, 26-976: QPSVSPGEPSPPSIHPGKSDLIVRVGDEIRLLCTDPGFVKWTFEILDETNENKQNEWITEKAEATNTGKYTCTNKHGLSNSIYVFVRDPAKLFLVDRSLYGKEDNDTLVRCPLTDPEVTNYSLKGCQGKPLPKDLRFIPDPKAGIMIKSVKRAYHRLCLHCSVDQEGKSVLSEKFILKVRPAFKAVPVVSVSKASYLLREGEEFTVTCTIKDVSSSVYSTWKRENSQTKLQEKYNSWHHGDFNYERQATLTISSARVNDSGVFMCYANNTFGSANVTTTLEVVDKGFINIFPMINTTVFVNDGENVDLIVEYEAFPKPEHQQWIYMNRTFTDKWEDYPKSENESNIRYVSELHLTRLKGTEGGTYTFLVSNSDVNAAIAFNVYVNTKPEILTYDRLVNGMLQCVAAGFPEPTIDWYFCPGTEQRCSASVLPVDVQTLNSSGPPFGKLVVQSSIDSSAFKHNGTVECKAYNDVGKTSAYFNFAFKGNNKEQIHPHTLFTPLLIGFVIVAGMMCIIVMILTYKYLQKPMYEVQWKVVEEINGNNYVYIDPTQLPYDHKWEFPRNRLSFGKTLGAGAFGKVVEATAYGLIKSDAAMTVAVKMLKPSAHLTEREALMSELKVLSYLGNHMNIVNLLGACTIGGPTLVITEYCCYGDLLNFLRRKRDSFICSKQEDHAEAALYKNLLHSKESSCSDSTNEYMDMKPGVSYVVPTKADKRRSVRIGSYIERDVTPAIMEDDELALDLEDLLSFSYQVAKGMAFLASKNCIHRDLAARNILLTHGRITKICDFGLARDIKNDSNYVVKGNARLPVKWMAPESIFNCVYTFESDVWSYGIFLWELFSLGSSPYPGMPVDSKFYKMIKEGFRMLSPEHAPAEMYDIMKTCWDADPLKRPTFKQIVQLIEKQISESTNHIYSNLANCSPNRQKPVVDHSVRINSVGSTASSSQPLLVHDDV

Tests used:
PDGFRβ = PDGFRβ (Homo sapiens, UniProt P09619); conditions: at nanomolar concentrations
c-Kit = c-Kit (Homo sapiens, UniProt P10721); conditions: at nanomolar concentrations

For Cc1nc(Nc2ncc(C(=O)Nc3c(C)cccc3Cl)s2)cc(N2CCN(CCO)CC2)n1.O [dasatinib, N-(2-chloro-6-methylphenyl)-2-[[6-[4-(2-hydroxyethyl)-1-piperazinyl]-2-methyl-4-pyrimidinyl]amino]-5-thiazolecarboxamide, monohydrate], which “inhibition of PDGFRβ” value (PDGFRβ) is on record?
Its value is “inhibits”.

And the “inhibition of c-Kit” value (c-Kit)?
The value was “inhibits”.
